# Earlier results as cited in US4866035A, “Dipeptidyl saccharides as host resistance enhancers in AIDS-immuno-compromised hosts and methods of use” (Merck & Co., Inc., priority 1987, dated 1989).
# Test system: AIDS or ARC patients
# Conditions: ARC or AIDS-related conditions
substance,measurement,value
Interleukin 2: Protein made by white blood cells that mediates production of interferon,clinical effect in patients,not encouraging
